Assay results from patent US20070072830A1, “Methods for treating diabetes” (Point Therapeutics, Inc., priority 2004, published 2007).

Amino acid sequences for entries named in this document (tags omitted). Residues count along the entry.
UniProt P14740, 37-767 limits assumed: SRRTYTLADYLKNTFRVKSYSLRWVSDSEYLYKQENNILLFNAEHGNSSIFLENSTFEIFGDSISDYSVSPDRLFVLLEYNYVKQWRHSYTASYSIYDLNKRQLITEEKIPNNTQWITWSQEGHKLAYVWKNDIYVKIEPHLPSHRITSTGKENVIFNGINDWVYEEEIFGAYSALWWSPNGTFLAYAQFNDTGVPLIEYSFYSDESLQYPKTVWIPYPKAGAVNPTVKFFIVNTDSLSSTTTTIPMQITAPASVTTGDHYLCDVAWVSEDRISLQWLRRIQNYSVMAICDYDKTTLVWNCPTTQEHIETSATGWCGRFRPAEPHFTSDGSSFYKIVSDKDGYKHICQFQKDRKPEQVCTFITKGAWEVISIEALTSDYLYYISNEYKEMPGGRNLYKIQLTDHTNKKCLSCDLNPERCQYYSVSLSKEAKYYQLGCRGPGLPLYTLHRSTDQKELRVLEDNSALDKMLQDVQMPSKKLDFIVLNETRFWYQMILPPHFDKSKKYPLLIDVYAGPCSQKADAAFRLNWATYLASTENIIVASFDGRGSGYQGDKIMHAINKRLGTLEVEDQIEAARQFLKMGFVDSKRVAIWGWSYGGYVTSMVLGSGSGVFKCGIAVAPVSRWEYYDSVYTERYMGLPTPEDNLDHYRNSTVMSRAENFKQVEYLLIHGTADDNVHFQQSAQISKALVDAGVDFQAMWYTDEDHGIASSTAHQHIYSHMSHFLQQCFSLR

Biological target: plasma DPP-IV (Rattus norvegicus, UniProt P14740)
Settings: Zucker rats, 10 μmol/kg oral

N[C@@H](CCC(=O)O)C(=O)N1CCC[C@H]1B(O)O [Glu-boroPro]
Inhibition of plasma DPP-IV activity at t−5 min: Marked inhibition | Inhibition of plasma DPP-IV activity by t0: maximal inhibition
